Amino acid sequences for entries named in this document (tags omitted). A change or cut given only in a name is not applied to a line headed by its entry. Chains listed by the source or under a name are the forms on record and can include a tag or linker. Residues count along the entry.
UniProt P00533, 25-1210 L858R limits assumed: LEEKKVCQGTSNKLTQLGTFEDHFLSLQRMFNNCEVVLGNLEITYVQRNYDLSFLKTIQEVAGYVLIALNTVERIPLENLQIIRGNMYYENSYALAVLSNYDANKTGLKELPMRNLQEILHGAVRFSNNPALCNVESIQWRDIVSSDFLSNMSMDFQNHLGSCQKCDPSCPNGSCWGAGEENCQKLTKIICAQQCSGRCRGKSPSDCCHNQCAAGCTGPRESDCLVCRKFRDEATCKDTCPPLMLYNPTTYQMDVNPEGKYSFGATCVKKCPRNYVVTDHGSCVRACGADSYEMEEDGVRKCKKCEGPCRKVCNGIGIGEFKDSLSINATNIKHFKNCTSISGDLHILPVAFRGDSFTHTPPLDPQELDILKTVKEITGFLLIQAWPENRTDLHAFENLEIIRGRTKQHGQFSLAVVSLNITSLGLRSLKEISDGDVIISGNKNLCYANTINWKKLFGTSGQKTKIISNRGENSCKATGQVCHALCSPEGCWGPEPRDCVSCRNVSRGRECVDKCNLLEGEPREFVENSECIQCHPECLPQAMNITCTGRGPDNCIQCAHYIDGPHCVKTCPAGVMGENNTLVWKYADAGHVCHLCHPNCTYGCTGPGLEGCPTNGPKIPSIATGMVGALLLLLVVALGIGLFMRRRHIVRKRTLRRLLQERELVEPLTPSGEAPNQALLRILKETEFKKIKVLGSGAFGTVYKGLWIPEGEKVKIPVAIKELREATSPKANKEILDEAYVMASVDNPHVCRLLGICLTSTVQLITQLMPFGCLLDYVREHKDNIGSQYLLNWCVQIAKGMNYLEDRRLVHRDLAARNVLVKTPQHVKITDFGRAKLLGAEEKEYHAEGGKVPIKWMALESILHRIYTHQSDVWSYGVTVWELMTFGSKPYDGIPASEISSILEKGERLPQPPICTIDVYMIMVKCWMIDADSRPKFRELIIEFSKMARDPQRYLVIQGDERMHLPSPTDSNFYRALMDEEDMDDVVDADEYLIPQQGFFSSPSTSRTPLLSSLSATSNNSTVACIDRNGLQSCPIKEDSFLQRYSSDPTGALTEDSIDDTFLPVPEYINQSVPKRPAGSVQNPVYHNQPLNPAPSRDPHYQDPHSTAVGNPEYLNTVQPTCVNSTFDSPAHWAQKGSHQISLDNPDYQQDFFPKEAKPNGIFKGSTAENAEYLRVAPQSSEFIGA
UniProt P00533, 25-1210 T790M/L858R limits assumed: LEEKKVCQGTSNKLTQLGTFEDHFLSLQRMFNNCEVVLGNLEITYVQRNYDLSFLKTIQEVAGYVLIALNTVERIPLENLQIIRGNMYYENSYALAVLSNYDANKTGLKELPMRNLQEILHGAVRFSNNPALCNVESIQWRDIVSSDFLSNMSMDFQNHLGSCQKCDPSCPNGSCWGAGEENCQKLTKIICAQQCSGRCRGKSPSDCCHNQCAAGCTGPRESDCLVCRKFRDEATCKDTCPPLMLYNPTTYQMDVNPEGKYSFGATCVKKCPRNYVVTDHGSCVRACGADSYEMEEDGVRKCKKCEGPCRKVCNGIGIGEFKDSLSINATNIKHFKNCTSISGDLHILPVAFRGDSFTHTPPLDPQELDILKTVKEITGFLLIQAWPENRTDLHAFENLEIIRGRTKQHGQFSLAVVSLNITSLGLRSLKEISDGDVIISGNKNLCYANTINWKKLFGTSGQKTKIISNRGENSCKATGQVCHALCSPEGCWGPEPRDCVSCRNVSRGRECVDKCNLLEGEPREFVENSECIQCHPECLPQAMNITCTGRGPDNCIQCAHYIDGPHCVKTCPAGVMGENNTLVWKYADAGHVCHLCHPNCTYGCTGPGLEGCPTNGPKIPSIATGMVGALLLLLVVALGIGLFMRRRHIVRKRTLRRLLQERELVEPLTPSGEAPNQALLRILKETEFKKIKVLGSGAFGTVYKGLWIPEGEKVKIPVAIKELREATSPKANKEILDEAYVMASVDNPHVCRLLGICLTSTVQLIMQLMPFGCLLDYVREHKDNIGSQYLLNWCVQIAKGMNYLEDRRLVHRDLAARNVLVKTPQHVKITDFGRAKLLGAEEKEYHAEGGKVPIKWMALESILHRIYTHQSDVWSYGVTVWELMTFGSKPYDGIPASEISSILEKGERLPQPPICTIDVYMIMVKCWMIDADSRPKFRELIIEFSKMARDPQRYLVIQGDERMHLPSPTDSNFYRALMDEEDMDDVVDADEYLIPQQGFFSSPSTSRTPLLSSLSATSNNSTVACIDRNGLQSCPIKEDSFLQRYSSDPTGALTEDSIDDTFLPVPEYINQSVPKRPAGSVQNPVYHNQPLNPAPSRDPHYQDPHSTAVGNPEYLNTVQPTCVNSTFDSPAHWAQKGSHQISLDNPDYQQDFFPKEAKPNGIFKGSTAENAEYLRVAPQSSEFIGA
UniProt P00533, 25-1210 limits assumed: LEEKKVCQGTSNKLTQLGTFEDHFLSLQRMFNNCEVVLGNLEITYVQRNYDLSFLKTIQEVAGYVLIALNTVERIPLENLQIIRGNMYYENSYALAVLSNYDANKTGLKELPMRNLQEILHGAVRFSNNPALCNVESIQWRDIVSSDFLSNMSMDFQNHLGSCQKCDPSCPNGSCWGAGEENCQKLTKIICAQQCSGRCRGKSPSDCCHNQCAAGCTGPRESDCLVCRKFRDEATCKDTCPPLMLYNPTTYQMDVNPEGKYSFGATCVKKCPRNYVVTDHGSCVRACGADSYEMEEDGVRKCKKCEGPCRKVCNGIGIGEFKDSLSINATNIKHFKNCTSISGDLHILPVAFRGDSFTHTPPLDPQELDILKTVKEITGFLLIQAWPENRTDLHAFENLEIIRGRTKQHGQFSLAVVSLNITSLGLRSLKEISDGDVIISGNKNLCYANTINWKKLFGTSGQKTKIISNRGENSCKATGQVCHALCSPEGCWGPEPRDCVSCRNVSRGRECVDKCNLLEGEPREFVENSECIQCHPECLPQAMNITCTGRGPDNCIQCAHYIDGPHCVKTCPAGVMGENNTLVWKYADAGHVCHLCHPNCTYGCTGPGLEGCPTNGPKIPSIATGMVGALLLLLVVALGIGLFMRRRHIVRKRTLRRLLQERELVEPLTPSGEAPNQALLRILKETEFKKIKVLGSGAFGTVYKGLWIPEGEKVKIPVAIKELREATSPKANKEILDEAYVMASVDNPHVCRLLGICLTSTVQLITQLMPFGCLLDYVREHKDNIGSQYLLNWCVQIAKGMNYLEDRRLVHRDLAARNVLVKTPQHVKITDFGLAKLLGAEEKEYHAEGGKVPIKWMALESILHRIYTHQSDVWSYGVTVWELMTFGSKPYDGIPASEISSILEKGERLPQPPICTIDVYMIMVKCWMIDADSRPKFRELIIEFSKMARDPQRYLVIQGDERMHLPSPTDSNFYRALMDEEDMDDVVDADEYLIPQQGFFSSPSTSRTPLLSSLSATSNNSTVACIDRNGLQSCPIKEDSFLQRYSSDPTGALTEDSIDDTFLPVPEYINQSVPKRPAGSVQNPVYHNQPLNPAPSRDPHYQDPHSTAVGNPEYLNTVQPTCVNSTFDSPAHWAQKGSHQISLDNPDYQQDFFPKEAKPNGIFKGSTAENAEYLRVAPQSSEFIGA
UniProt P00533, with tags, fused parts or gaps DEL746-750 limits assumed: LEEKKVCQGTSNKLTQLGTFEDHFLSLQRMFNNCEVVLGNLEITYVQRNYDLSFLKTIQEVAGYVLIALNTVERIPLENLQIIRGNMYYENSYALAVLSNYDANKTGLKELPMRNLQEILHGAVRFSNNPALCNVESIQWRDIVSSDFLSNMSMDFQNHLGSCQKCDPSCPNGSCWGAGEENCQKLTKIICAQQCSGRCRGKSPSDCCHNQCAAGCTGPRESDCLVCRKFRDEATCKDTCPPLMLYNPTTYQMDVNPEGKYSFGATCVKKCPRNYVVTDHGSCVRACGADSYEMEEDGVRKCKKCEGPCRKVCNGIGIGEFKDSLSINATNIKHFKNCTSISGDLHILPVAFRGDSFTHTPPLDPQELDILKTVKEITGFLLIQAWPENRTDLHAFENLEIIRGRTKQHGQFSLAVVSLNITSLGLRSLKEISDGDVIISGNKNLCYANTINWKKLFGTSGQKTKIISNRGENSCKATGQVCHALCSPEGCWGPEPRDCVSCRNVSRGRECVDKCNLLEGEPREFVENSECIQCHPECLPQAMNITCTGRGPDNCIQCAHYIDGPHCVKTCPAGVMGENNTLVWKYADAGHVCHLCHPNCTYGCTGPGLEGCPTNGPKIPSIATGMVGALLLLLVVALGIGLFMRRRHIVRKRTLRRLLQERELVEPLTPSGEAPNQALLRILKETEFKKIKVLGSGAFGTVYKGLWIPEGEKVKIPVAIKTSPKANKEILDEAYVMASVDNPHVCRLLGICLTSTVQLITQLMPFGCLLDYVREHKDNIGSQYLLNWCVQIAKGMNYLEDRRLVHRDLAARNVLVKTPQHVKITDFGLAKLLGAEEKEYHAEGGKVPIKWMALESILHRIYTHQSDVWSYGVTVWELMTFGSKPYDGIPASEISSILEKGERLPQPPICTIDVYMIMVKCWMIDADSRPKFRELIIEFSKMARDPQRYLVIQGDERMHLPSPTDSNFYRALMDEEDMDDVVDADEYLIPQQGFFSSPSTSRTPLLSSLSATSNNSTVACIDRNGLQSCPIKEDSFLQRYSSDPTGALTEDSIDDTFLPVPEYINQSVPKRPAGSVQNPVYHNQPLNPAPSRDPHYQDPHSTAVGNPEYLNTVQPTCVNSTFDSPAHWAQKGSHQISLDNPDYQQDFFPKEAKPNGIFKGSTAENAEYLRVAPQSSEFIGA

According to patent US9040547B2, “Pyrrolopyrimidine and purine derivatives” (PFIZER INC., priority 2011, dated 2015):

Tests used:
EGFR E746-A750 deletion = EGFR E746-A750 deletion (Homo sapiens, UniProt P00533, DEL746-750); assay: pEGFR Y1068 ELISA assay, NIH3T3/EGFR_E746-A750 deletion cells; format: cell-based; settings: read-out: ELISA7E 3T3 Del IC50; 3T3 Del cells, 2 hrs compound treatment;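 note: sandwich ELISA on cell lysates detecting phospho-EGFR at Tyr1068, compounds run as 11-point threefold dilution series in duplicate, IC50 from inhibition of this phosphorylation signal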
[1] = target: EGFR L858R+T790M, endogenous (Homo sapiens, UniProt P00533, L858R/T790M); assay: pEGFR Y1068 ELISA assay, NCI-H1975 cells; format: cell-based; settings: read-out: pEGFRY1068 ELISA3T3T790M—L858R IC50 (nM), (H1975); value marked (H1975): NCI-H1975 cells, 2 hrs compound treatment;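 note: sandwich ELISA of endogenous phospho-EGFR (Tyr1068) in lysates of treated cells, 11-point 1:3 serial dilution tested in duplicate per plate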
EGFR L858R, endogenous = EGFR L858R, endogenous (Homo sapiens, UniProt P00533, L858R); assay: pEGFR Y1068 ELISA assay, NCI-H3255 cells; format: cell-based; settings: read-out: pEGFRY1068 ELISA3T3 L858R IC50 (nM), (H3255); value marked (H3255): NCI-H3255 cells, 2 hrs compound treatment
[2] = target: EGFR wildtype, endogenous (Homo sapiens, UniProt P00533); assay: pEGFR Y1068 ELISA assay, A549 cells; format: cell-based; settings: read-out: pEGFRY1068 ELISAA549 IC50, full serum media, stimulated 10 min with EGF (40 ng/mL);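 note: sandwich ELISA of phospho-EGFR Tyr1068 in cell lysates, cells exposed to compound for 2 h before EGF stimulation, 11-point threefold dilution series run in duplicate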
EGFR Del (PC9) = EGFR Del (PC9) (Homo sapiens, UniProt P00533, DEL746-750); assay: EGFR ELISA, PC9 Del cells; format: cell-based; settings: read-out: EGFR_ELISA9E PC9 Del IC50;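 note: cellular EGFR autophosphorylation at Tyr1068 quantified by sandwich ELISA of cell lysates after 2 h compound exposure at 37 °C, 11-point threefold dilution series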
EGFR L858R+T790M = EGFR L858R+T790M (Homo sapiens, UniProt P00533, L858R/T790M); assay: pEGFR Y1068 ELISA assay, NIH3T3/EGFR_L858R+T790M cells; format: cell-based; settings: read-out: pEGFRY1068 ELISA3T3T790M—L858R IC50; 3T3 cell line, 2 hrs compound treatment;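 note: sandwich ELISA of EGFR phosphorylated at Tyr1068 in lysates of stably transfected NIH/3T3 cells, 11-point threefold dilution series run in duplicate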
EGFR L858R = EGFR L858R (Homo sapiens, UniProt P00533, L858R); assay: pEGFR Y1068 ELISA assay, NIH3T3/EGFR_L858R cells; format: cell-based; settings: read-out: pEGFRY1068 ELISA3T3 L858R IC50; 3T3 cell line, 2 hrs compound treatment;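 note: sandwich ELISA of phospho-EGFR Tyr1068 in lysates of stably transfected NIH/3T3 pools after 2 h compound exposure at 37 °C, 11-point threefold dilution series run in duplicate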
NIH3T3/EGFR_L858R = assay: Cell proliferation assay (CellTiter-Glo), NIH3T3/EGFR_L858R; settings: read-out: 3T3 L858R IC50, 3T3 cell line, three to five days of compound treatment
[3] = test system: NIH3T3/EGFR_E746-A750_deletion; assay: Cell proliferation assay (CellTiter-Glo), NIH3T3/EGFR_E746-A750_deletion; settings: read-out: 3T3 del IC50, 3T3 cell line, three to five days of compound treatment
NIH3T3/EGFR L858R+T790M = assay: Cell proliferation assay (CellTiter-Glo), NIH3T3/EGFR L858R+T790M; format: cell-based; settings: read-out: 3T3 L858R_T790M IC50, 3T3 cell line, three to five days of compound treatment;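 note: luminescent ATP read-out proportional to metabolically active cell number, cells grown in serum-supplemented medium, 11-point threefold serial dilution tested in duplicate, incubation at 37 °C with 5% CO2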
[4] = test system: NIH3T3/EGFR_E746-A750_deletion+T790M; assay: Cell proliferation assay (CellTiter-Glo), NIH3T3/EGFR_E746-A750_deletion+T790M; settings: read-out: 3T3 del_T790M IC50, 3T3 cell line, three to five days of compound treatment

Which IC50 (EGFR E746-A750 deletion) does the source give for C=CC(=O)Nc1cccc(Oc2nc(Nc3cnn(C4CCN(C)CC4)c3)nc3[nH]cnc23)c1 here?
The IC50 was 0.633 µM.

What does the source list for C=CC(=O)N(C)[C@H]1C[C@H](Oc2nc(Nc3cn(C)nc3C)nc3[nH]cc(-c4ccccn4)c23)C1 (relative stereo)?
IC50 [1]: 41 nM; IC50 (EGFR L858R, endogenous): 60 nM; IC50 [2]: 6.12 µM; IC50 (EGFR Del (PC9)): 0.24 µM

How did the IC50 [1] turn out when C=CC(=O)N(C)[C@H]1C[C@H](Oc2nc(Nc3cn[nH]c3)nc3[nH]cc(Cl)c23)C1 (relative stereo) was run?
Its IC50 is 86 nM.

What about the IC50 (EGFR L858R, endogenous) of the same compound?
Its IC50 is 311 nM.

What about the IC50 (EGFR Del (PC9)) of the same compound?
Its IC50 is 1.32 µM.

How did the IC50 (EGFR L858R+T790M) turn out when C=CC(=O)N1C[C@@H](COc2nc(Nc3cnn(C)c3)nc3[nH]cc(C#N)c23)[C@H](CC(F)(F)F)C1 (relative stereo) was run?
Its IC50 is 0.446 µM.

And the IC50 (EGFR L858R)?
The IC50 was 1.93 µM.

And the IC50 [2]?
The IC50 was over 10 µM.

What about the IC50 (NIH3T3/EGFR_L858R) of the same compound?
The IC50 was under 0.01 µM.

And the IC50 [3]?
The IC50 was 0.01 to 0.1 µM.

What about the IC50 (NIH3T3/EGFR L858R+T790M) of the same compound?
Its IC50 is 0.1 to 1 µM.

What about the IC50 [4] of the same compound?
The IC50 was 0.01 to 0.1 µM.

What does the source list for C=CC(=O)N1C[C@@H](COc2nc(Nc3cnn(C)c3)nc3[nH]cc(C#N)c23)[C@H](C2CC2)C1 (relative stereo)?
IC50 (EGFR L858R+T790M): 0.162 µM; IC50 (EGFR L858R): 1.01 µM; IC50 [2]: 2.34 µM; IC50 (NIH3T3/EGFR_L858R): 0.1 to 1 µM; IC50 [3]: < 0.01 µM; IC50 (NIH3T3/EGFR L858R+T790M): 0.1 to 1 µM; IC50 [4]: < 0.01 µM
